# Laboratory results published in PMC5340007 (BMC Cancer, 2017).
# Experiment: Plasma pharmacokinetics, each drug alone and in combination
# Conditions: selumetinib + dacarbazine arm, dosed in combination, selumetinib 50 mg (N = 7), geometric mean (% CV)
smiles,measurement,value
Cn1cnc2c(F)c(Nc3ccc(Br)cc3Cl)c(C(=O)NOCCO)cc21 [Selumetinib],AUC(0–12),2822 (42.48) ng•h/mL
